Experimental data reported in ChEMBL document CHEMBL4145666, “In Search of Selectivity in Inhibition of ADAM10” (ACS Med Chem Lett, 2018).

Amino acid sequences for entries named in this document (tags omitted). A change or cut given only in a name is not applied to a line headed by its entry.
UniProt P08253: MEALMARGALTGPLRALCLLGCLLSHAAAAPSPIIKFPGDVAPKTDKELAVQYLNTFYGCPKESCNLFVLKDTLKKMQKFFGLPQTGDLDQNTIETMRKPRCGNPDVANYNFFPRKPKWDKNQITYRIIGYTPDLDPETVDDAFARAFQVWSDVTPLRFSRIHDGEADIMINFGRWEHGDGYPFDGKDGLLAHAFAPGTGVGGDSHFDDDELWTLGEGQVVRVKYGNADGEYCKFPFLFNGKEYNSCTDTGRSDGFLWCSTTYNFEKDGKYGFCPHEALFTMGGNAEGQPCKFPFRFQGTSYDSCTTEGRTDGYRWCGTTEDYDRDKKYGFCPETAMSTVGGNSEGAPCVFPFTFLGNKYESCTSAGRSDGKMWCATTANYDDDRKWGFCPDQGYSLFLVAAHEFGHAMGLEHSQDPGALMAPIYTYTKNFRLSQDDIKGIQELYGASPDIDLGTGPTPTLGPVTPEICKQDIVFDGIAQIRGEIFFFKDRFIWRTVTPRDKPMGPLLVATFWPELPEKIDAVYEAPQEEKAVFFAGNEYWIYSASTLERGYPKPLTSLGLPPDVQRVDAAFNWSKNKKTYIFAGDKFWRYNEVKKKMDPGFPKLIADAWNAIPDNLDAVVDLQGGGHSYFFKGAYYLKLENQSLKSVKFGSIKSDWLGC

What was measured:
[1] = target: T1, Matrilysin (Homo sapiens, UniProt P09237); assay: Inhibition of recombinant human MMP7 expressed in Escherichia coli using MOCAc-Pro-Leu-Gly-Leu-A2pr(Dnp)-Ala-Arg-NH2 as substrate by fluorescence spectrophotometric method
T1 sequence (P09237 whole entry): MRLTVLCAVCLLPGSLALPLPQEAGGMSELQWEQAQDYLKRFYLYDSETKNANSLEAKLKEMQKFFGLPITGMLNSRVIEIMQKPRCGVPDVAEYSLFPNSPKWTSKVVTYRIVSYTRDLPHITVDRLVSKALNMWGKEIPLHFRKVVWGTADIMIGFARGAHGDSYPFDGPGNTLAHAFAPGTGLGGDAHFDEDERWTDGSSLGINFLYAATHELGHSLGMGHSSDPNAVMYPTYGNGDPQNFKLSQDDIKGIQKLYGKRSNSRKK

[2] = target: 72 kDa type IV collagenase (Homo sapiens, UniProt P08253); assay: Inhibition of APMA activated recombinant human full length MMP2 expressed in mouse cells using MOCAc-Pro-Leu-Gly-Leu-A2pr(Dnp)-Ala-Arg-NH2 as substrate by fluorescence spectrophotometric method; assay type: cell-based

CN1CC2(CC2)C[C@H](C(=O)NO)[C@H]1C(=O)N1CCN(c2ccc(C(F)(F)F)cn2)CC1
Ki [1]: 75 nM
Ki [2]: 1.37 nM
